Like-named read-outs stand apart in the source and are kept apart here.
What was measured:
[1] = test system: alanine aminotransferase (ALT); assay: Phase III trial in Asian patients with chronic hepatitis C: ALT normalisation
[2] = human, in vivo
[3] = test system: Vesicular Stomatitis virus; type: cell-based
[4] = test system: hepatitis C virus (HCV); assay: Phase III randomized placebo-controlled trial in Asian patients with chronic hepatitis C: HCV RNA response (viral clearance, EVR, SVR)
[5] = test system: ALT; details: acute HCV infection (Omata 1991); controls one of 14; cited from earlier work
[6] = test system: HCV; details: cited from earlier work
[7] = 44 mcg sc tiw, 12 weeks, Asian IFN-alpha-naïve chronic hepatitis C patients
[8] = All subjects, Full Analysis Set
[9] = Baseline HCV RNA: High viral load, Full Analysis Set
[10] = Baseline HCV RNA: Low viral load, Full Analysis Set
[11] = Genotype 2 or 3, Full Analysis Set
[12] = Per Protocol Set (109 subjects)

IFN-beta-1a: Rebif, recombinant human interferon beta-1a, purified 166 amino acid glycoprotein produced in Chinese Hamster Ovary cells
rate of ALT normalization by week 12 [1, 7]: 65.1% | ALT normalisation at Week 12 achieved: No ([1]; 44 mcg sc tiw, N = 128): 44 (34.9%) subjects (%) | ALT normalisation at Week 12 achieved: Yes ([1]; 44 mcg sc tiw, N = 128): 82 (65.1%) subjects (%) | Odds ratio for ALT normalisation, IFN-beta-1a vs placebo ([1]; Week 12): 20.24 | Number of subjects with at least one adverse event [2]: 123 (96.1%) subjects (%) | Number of subjects with at least one adverse event considered probably or possibly related to study medication [2]: 123 (96.1%) subjects (%) | Number of subjects with at least one adverse event leading to discontinuation of study medication [2]: 3 (2.3%) subjects (%) | Number of subjects with at least one serious adverse event [2]: 0 subjects | mean values for haemoglobin, WBC and neutrophils (absolute) [2]: remained within the normal reference range at all times | antiviral activity contained in Rebif 44 mcg ([3]; 44 mcg, same bioassay): approximately 12 MIU | specific activity (antiviral activity) ([3]; reference standard calibrated against WHO natural interferon beta standard, WISH cells, Vesicular Stomatitis virus): approximately 270 million international units (M | rate of EVR by week 12 [4, 7]: 92.2% | rate of complete viral clearance by week 12 [4, 7]: 74.2% | percentage of subjects with SVR at Week 48 [4, 8]: (26.6%) | subjects with SVR at Week 48 (subjects with SVR/subjects) [4, 8]: 34/128 | percentage of subjects with SVR at Week 48 [4, 9]: (12.9%) | subjects with SVR at Week 48 (subjects with SVR/subjects) [4, 9]: 11/85 | percentage of subjects with SVR at Week 48 [4, 10]: (53.5%) | subjects with SVR at Week 48 (subjects with SVR/subjects) [4, 10]: 23/43 | SVR at Week 48 achieved: No ([4]; Full Analysis Set (128 subjects)): 94 (73.4%) subjects (%) | SVR at Week 48 achieved: Yes ([4]; Full Analysis Set (128 subjects), 24 weeks treatment, 24 weeks observation): 34 (26.6%) subjects (%) | proportion of subjects with SVR ([4]; Full Analysis Set, absence of detectable HCV RNA in serum at Week 24 and Week 48): 26.6% | SVR at Week 48 achieved: No (Table 9) ([4]; Full Analysis Set, monotherapy 128 patients, combination with ribavirin 127 patients): 94 (73.4%) patients (%) | SVR at Week 48 achieved: Yes (Table 9) ([4]; Full Analysis Set, monotherapy 128 patients, combination with ribavirin 127 patients, 24 weeks treatment, 24 weeks observation, draft statistical report): 34 (26.6%) patients (%) | percentage of subjects with SVR at Week 48 ([4]; Genotype 1, Full Analysis Set): (22.4%) | subjects with SVR at Week 48 (subjects with SVR/subjects) ([4]; Genotype 1, Full Analysis Set): 19/85 | percentage of subjects with SVR at Week 48 [4, 11]: (39.4%) | subjects with SVR at Week 48 (subjects with SVR/subjects) [4, 11]: 13/33 | percentage of subjects with SVR at Week 48 ([4]; Genotype 4, Full Analysis Set): (100.0%) | subjects with SVR at Week 48 (subjects with SVR/subjects) ([4]; Genotype 4, Full Analysis Set): 1/1 | percentage of subjects with SVR at Week 48 ([4]; Genotype 6, Full Analysis Set): (12.5%) | subjects with SVR at Week 48 (subjects with SVR/subjects) ([4]; Genotype 6, Full Analysis Set): 1/8 | subjects with SVR at Week 48 (subjects with SVR/subjects) ([4]; Genotype - other, Full Analysis Set): 0/1 | Complete viral clearance or ≧2 log decrease in HCV RNA (%) ([4]; HCV Genotype 1, week 12): (89.3%) | Complete viral clearance or ≧2 log decrease in HCV RNA (%) ([4]; HCV Genotype 2, week 12): (100.0%) | Complete viral clearance or ≧2 log decrease in HCV RNA (%) ([4]; HCV Genotype 3, week 12): (88.9%) | Complete viral clearance or ≧2 log decrease in HCV RNA (%) ([4]; HCV Genotype 4, week 12): (100.0%) | Complete viral clearance or ≧2 log decrease in HCV RNA (%) ([4]; HCV Genotype 6, week 12): (100.0%) | Complete viral clearance or ≧2 log decrease in HCV RNA (%) ([4]; Others (genotype), week 12): (100.0%) | SVR at Week 48 achieved: No [4, 12]: 81 (74.3%) subjects (%) | SVR at Week 48 achieved: Yes [4, 12]: 28 (25.7%) subjects (%) | Odds ratio for EVR, IFN-beta-1a vs placebo ([4]; Week 12): 608.09

IFN-beta: human fibroblast interferon, native or recombinant, as used in cited literature studies
patients achieving sustained normalization of ALT at one year [5]: 7 of 11 | mean values for platelets [2]: fell below the normal reference range reaching its lowest value at Week 4 before climbing back within a normal range by Week 20 of treatment | clinical efficacy ([6]; intramuscular, 3 MU three times per week, HCV patients of non-Asian race (Perez 1995)): Very poor clinical efficacy | clinical efficacy ([6]; subcutaneous, 9 or 12 MU, non-Asian (Caucasian) HCV patients (Habersetzer 2000)): has shown efficacy at least in a group of patients

Source: patent publication US20080075696A1, “Treatment Of Hepatitis C In The Asian Population With Interferon-Beta” (priority 2004, published 2008)
